Test results published in article PMC8887546, “Design and Synthesis of Brain Penetrant Glycopeptide Analogues of PACAP With Neuroprotective Potential for Traumatic Brain Injury and Parkinsonism” (Frontiers in drug discovery, 2022).

Sequences of proteins named here, by UniProt entry; tags and fusion partners are left off. Residues count along the entry.
UniProt P32241, 31-457: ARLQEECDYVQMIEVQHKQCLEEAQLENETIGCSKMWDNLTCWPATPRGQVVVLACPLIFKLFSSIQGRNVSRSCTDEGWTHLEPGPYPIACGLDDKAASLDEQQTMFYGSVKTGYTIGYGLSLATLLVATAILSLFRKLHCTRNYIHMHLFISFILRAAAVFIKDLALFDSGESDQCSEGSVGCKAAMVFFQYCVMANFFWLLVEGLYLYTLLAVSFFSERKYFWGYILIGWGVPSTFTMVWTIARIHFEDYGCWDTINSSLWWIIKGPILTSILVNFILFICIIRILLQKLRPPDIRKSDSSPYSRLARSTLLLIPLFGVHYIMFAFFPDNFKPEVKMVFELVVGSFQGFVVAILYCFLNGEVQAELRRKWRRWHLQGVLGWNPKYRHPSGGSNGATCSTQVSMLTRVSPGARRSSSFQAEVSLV

Tests used:
Assay type in all cases: cell-based
human PAC1 receptor = molecular target: T1, human PAC1 receptor (Homo sapiens, UniProt P41586); test: cAMP stimulation in CHO cells expressing PAC1; conditions: for Emax: CHO
T1 construct: expressed in transfected cells; host or cells: CHO cells (G418 selection)
T1 sequence (P41586 21-468): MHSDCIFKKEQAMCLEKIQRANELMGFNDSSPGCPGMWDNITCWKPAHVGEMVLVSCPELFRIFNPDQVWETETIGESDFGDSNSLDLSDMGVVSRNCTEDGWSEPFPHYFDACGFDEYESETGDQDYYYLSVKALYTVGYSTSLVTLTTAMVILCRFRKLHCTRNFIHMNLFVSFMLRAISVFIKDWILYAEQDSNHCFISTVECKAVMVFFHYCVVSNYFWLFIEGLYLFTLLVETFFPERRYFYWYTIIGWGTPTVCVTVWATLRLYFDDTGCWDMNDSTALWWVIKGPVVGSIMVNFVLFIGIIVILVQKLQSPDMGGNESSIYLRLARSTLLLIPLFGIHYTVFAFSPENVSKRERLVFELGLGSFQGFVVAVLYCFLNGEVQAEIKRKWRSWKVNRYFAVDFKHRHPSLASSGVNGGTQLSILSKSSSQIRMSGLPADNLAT
Experimental: (§1) Briefly, human PAC1, VPAC1, and VPAC2 receptors expressed in CHO cells were used for all experiments. Cells were grown in 50:50 DMEM-F12 medium with 10% heat-inactivated fetal bovine serum, 1X penicillin-streptomycin supplement, and 500 μg/ml G418 (neomycin) to maintain selection (all from ThermoFisher) at 37°C with 5% CO2 atmosphere. For the cAMP assay, cells were seeded at 20,000 cells/well in a 96 well plate, recovered overnight, then serum starved for 4 h. The cells were then incubated with 500 μM IBMX for 20 min, followed by agonist concentration curves in 500 μM IBMX media for 10 min. The reaction was terminated, boiled, then collected, followed by competition with 7 μg of bovine protein kinase A (Sigma-Aldrich) and ∼1 pmol of ^3H-cAMP (PerkinElmer). The assay was incubated at room temp for 1 h, then collected onto GF/B filter plates and the data read using a MicroBeta2 scintillation counter (PerkinElmer).

human VPAC1 receptor = molecular target: T2, human VPAC1 receptor (Homo sapiens, UniProt P32241); test: cAMP stimulation in CHO cells expressing VPAC1; conditions: for Emax: CHO; for Receptor selectivity ratio VPAC1/PAC1: ratio of cAMP EC50 values
T2 construct: expressed in transfected cells; host or cells: CHO cells (G418 selection)

human VPAC2 receptor = molecular target: T3, human VPAC2 receptor (Homo sapiens, UniProt P41587); test: cAMP stimulation in CHO cells expressing VPAC2; conditions: for Emax: CHO; for Receptor selectivity ratio VPAC2/PAC1 / Receptor selectivity ratio VPAC2/VPAC1: ratio of cAMP EC50 values
T3 construct: expressed in transfected cells; host or cells: CHO cells (G418 selection)
T3 sequence (P41587 24-438): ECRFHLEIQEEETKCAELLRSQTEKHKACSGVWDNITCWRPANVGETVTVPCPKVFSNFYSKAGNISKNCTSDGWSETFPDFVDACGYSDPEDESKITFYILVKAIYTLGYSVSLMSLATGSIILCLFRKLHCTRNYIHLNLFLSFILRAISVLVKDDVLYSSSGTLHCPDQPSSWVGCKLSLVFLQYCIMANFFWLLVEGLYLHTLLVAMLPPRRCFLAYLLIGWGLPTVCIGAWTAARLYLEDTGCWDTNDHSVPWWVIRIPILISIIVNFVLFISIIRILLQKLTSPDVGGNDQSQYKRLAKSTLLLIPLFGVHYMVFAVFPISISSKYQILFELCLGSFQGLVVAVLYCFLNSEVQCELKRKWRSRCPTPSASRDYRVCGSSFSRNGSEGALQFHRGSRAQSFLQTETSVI
Experimental: as §1

EC50 (human PAC1 receptor)	Emax (human PAC1 receptor)	EC50 (human VPAC1 receptor)	Emax (human VPAC1 receptor)	Receptor selectivity ratio VPAC1/PAC1 (human VPAC1 receptor)	EC50 (human VPAC2 receptor)	Emax (human VPAC2 receptor)	Receptor selectivity ratio VPAC2/PAC1 (human VPAC2 receptor)	Receptor selectivity ratio VPAC2/VPAC1 (human VPAC2 receptor)	Structure (SMILES)
25.5 nM	85%	1.3 nM	90%	0.05	241 nM	104%	9.45	185.38	CCC[C@H](NC(=O)[C@H](CCC(N)=O)NC(=O)[C@H](CCCCN)NC(=O)[C@H](CCCNC(=N)N)NC(=O)[C@H](Cc1ccc(O)cc1)NC(=O)[C@H](CCCNC(=N)N)NC(=O)[C@H](CO)NC(=O)[C@H](Cc1ccc(O)cc1)NC(=O)[C@H](CO)NC(=O)[C@H](CC(=O)O)NC(=O)[C@@H](NC(=O)[C@H](Cc1ccccc1)NC(=O)[C@@H](NC(=O)CNC(=O)[C@H](CC(=O)O)NC(=O)[C@@H](CO)NC(=O)[C@@H](N)Cc1c[nH]cn1)[C@@H](C)CC)[C@@H](C)O)C(=O)N[C@@H](C)C(=O)N[C@H](C(=O)N[C@@H](CCCCN)C(=O)N[C@@H](CCCCN)C(=O)N[C@@H](Cc1ccc(O)cc1)C(=O)N[C@@H](CC(C)C)C(=O)N[C@@H](C)C(=O)N[C@@H](C)C(=O)N[C@H](C(=O)N[C@@H](CC(C)C)C(=O)N[C@@H](CO[C@@H]1O[C@H](CO)[C@@H](O)[C@H](O)[C@H]1O)C(N)=O)C(C)C)C(C)C [CRA3000]
54.5 nM	86%	4.8 nM	90%	0.09	654 nM	107%	12.00	136.25	CCC[C@H](NC(=O)[C@H](CCC(N)=O)NC(=O)[C@H](CCCCN)NC(=O)[C@H](CCCNC(=N)N)NC(=O)[C@H](Cc1ccc(O)cc1)NC(=O)[C@H](CCCNC(=N)N)NC(=O)[C@H](CO)NC(=O)[C@H](Cc1ccc(O)cc1)NC(=O)[C@H](CO)NC(=O)[C@H](CC(=O)O)NC(=O)[C@@H](NC(=O)[C@H](Cc1ccccc1)NC(=O)[C@@H](NC(=O)CNC(=O)[C@H](CC(=O)O)NC(=O)[C@@H](CO)NC(=O)[C@@H](N)Cc1c[nH]cn1)[C@@H](C)CC)[C@@H](C)O)C(=O)N[C@@H](C)C(=O)N[C@H](C(=O)N[C@@H](CCCCN)C(=O)N[C@@H](CCCCN)C(=O)N[C@@H](Cc1ccc(O)cc1)C(=O)N[C@@H](CC(C)C)C(=O)N[C@@H](C)C(=O)N[C@@H](C)C(=O)N[C@H](C(=O)N[C@@H](CO[C@@H]1O[C@H](CO)[C@@H](O)[C@H](O)[C@H]1O)C(N)=O)C(C)C)C(C)C [CRA3001]
–	–	–	93%	–	–	–	–	–	CCC[C@H](NC(=O)[C@H](CCC(N)=O)NC(=O)[C@H](CCCCN)NC(=O)[C@H](CCCNC(=N)N)NC(=O)[C@H](Cc1ccc(O)cc1)NC(=O)[C@H](CCCNC(=N)N)NC(=O)[C@H](CO)NC(=O)[C@H](Cc1ccc(O)cc1)NC(=O)[C@H](CO)NC(=O)[C@H](CC(=O)O)NC(=O)[C@H](C)NC(=O)[C@H](Cc1ccccc1)NC(=O)[C@@H](NC(=O)CNC(=O)[C@H](CC(=O)O)NC(=O)[C@@H](CO)NC(=O)[C@@H](N)Cc1c[nH]cn1)[C@@H](C)CC)C(=O)N[C@@H](C)C(=O)N[C@H](C(=O)N[C@@H](CCCCN)C(=O)N[C@@H](CCCCN)C(=O)N[C@@H](Cc1ccc(O)cc1)C(=O)N[C@@H](CC(C)C)C(=O)N[C@@H](C)C(=O)N[C@@H](C)C(=O)N[C@H](C(=O)N[C@@H](CC(C)C)C(=O)N[C@@H](CO[C@@H]1O[C@H](CO)[C@@H](O)[C@H](O)[C@H]1O)C(N)=O)C(C)C)C(C)C [CRA3003]
